Measured values reported in ChEMBL document CHEMBL1799982, “Synthesis, protein kinase inhibitory potencies, and in vitro antiproliferative activities of meridianin derivatives” (J Med Chem, 2011).
pIC50: −log10 of the molar value.

Amino acid sequences for entries named in this document (tags omitted). A change or cut given only in a name is not applied to a line headed by its entry.
UniProt P49759: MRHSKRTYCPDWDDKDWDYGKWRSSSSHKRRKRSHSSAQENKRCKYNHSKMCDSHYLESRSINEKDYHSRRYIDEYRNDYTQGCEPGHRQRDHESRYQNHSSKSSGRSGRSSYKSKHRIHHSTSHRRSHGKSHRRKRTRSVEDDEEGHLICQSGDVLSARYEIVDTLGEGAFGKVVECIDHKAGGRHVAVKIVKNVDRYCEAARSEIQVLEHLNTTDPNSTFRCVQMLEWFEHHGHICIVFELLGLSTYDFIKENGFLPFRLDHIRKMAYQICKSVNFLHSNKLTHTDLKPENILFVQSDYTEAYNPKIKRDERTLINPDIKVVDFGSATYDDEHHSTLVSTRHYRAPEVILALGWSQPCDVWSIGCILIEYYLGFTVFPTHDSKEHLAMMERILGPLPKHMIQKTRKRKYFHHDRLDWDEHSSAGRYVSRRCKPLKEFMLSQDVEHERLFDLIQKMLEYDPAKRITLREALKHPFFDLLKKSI

Target: Dual specificity protein kinase CLK1 (Homo sapiens, UniProt P49759)

## CC(=O)c1ccc(-c2cnc(N)nc2-c2c[nH]c3cccc(Br)c23)cc1
  pIC50: 5.82
